Results as given in US20250084372A1, “IN VITRO DERIVATION OF GONADAL SOMATIC CELLS” (Conception Bisosciences, Inc., priority 2020, published 2025).

Tested on: ovarian somatic cells (OSCs)
Assay: OSC induction with different BMP isoforms, marker qPCR
Type: cell-based, human
Conditions: 20 ng/mL BMP in granulosa double medium
Method: Gonadal somatic cells were induced in granulosa double medium comprising different BMP isoforms, and the expression of bipotential gonadal markers as well as that of granulosa markers were measured in the resulting cells.
The replated cells from the second intermediate population were incubated in the granulosa double medium (also referred to as gonadal induction medium or OSC induction medium) according to Table 17, with 20 ng/mL of either BMP4, BMP2, BMP 7 or BMP15. The expression of bipotential gonadal markers (WT1, LHX9, GADD45G and GATA4) as well as granulosa markers (FOXL2, NR1H4 and KITLG) were measured by qPCR in the resulting cells.

B1: BMP2: BMP isoform in gonadal induction medium (protein, UniProt P12643 283-396, looked up)
Bone morphogenetic protein 2: QAKHKQRKRLKSSCKRHPLYVDFSDVGWNDWIVAPPGYHAFYCHGECPFPLADHLNSTNHAIVQTLVNSVNSKIPKACCVPTELSAISMLYLDENEKVVLKNYQDMVVEGCGCR
  expression of bipotential gonadal markers (WT1, LHX9, GADD45G, GATA4) compared to BMP4: comparable or higher
  expression of granulosa markers (FOXL2, NR1H4, KITLG) compared to BMP4: comparable or higher
